# pIC50: −log10 of the molar value.
# Biological target: Dual specificity tyrosine-phosphorylation-regulated kinase 1A (Mus musculus, UniProt Q61214)
# Assay: Inhibition of mouse glutathione S-transferase-tagged Dyrk1A expressed in Escherichia coli DH5alpha using NH2-RSPSYGRSRSRSRSRSRSRSRSNSRSRSY-OH peptide as substrate in presence of [gamma 32P-ATP] and ATP by liquid scintillation counting method
compound,measurement,value
CCN1/C(=C/C(C)=O)Sc2ccc(OC)cc21,pIC50,7.92

# From ChEMBL document CHEMBL5113421, “Development of novel conformationally restricted selective Clk1/4 inhibitors through creating an intramolecular hydrogen bond involving an imide linker” (Eur J Med Chem, 2022)
